Target: human CTLA4 expressed on Jurkat T cells (human) (UniProt P16410)
Assay: cell-based or functional assay

IC50, luciferase (RLU), CTLA4 Dual-Cell Reporter Assay (Jurkat cells with hCTLA4 plus Raji cells): 5.19 nM
IC50, luciferase reporter assay (Jurkat cells with CTLA4 plus Raji cells with hCD80 and hCD86): 11.6 nM
Substance: anti-hCTLA4 antibody 10D1 (ipilimumab)
